The source of these data is patent US12077495B2 (priority 2018, dated 2024).

This test deals with proton-coupled transporters (MCTs) endogenously present in tsA201 cells. The experiment in a line: MCT-mediated uptake in tsA201 cells (BCECF pH-sensitive dye). Particulars: 2 min, read-out: EC50, concentration-dependent decrease in intracellular pH. The class given is cell-based.

Take `O=C(O)/C=C1\CCCc2cc(-c3ccccc3)ccc2C1O` (stereo not shown) [Compound 2, (E)-2-(5-hydroxy-2-phenyl-5,7,8,9-tetrahydro-6H-benzo[7]annulen-6-ylidene)acetic acid]: the EC50 was determined as 1600 µM.
